Data: the SangsterLogP compilation

Experiment: method code SF-FL/RC, from DOI: 10.1007/bf00499868, PMID: 43479

`CNC[C@H](O)c1cccc(O)c1` showed a logP of -0.31.
